From paper PMC2430196, “Antagonist affinity measurements at the Gi-coupled human histamine H3 receptor expressed in CHO cells” (BMC Pharmacology, 2008)

Amino acid sequences for entries named in this document (tags omitted). A change or cut given only in a name is not applied to a line headed by its entry.
UniProt Q9Y5N1: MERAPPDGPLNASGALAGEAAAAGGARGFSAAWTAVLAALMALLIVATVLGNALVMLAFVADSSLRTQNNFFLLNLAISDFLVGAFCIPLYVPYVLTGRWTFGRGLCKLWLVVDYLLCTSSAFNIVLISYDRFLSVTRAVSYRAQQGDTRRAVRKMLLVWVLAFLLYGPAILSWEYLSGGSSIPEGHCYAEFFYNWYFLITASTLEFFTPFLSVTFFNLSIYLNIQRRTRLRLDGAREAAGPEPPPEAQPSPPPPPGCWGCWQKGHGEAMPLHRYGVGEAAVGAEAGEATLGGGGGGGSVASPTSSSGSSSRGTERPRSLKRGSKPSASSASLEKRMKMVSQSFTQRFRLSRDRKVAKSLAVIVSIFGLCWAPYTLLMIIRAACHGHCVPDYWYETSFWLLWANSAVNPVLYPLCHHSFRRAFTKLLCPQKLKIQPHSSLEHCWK

Key:
[1] = target: T1, human histamine H3 receptor (Homo sapiens, UniProt Q9Y5N1); assay: CRE-SPAP gene transcription in forskolin-stimulated CHO-H3-SPAP cells; conditions: pKD values
[2] = target: T1, human histamine H3 receptor; assay: 3H-cAMP accumulation in forskolin-stimulated CHO-H3-SPAP cells; format: cell-based; design: secondarily transfected with the full length human histamine H3 receptor; host or cells: CHO-K1 cells with CRE-SPAP reporter (clonal line CHO-H3-SPAP); conditions: pKD
[3] = target: T1, human histamine H3 receptor; assay: cell-based

NC(=NCc1ccc(Cl)cc1)SCCCc1cnc[nH]1 [clobenpropit]
Kd ([1]; agonist N-α-methylhistamine): 0.38 nM | Kd ([1]; agonist R-α-methylhistamine): 0.617 nM | Kd ([1]; agonist S-α-methylhistamine): 0.562 nM | Kd ([1]; agonist VUF 8430): 0.776 nM | Kd ([1]; agonist histamine): 0.38 nM | Kd ([1]; agonist imetit): 0.631 nM | Kd ([1]; agonist immethridine): 0.617 nM | Kd ([1]; agonist impentamine (first component of the response)): 0.977 nM | Kd ([1]; agonist proxyfan): 0.562 nM | Kd ([2]; agonist N-α-methylhistamine): 0.372 nM | Kd ([2]; agonist R-α-methylhistamine): 0.437 nM | Kd ([2]; agonist S-α-methylhistamine): 0.347 nM | Kd ([2]; agonist VUF 5681): 0.631 nM | Kd ([2]; agonist VUF 8430): 0.38 nM | Kd ([2]; agonist burimamide): 0.562 nM | Kd ([2]; agonist histamine): 0.417 nM | Kd ([2]; agonist imetit): 0.525 nM | Kd ([2]; agonist immepip): 0.457 nM | Kd ([2]; agonist immethridine): 0.479 nM | Kd ([2]; agonist impentamine): 0.347 nM | Kd ([2]; agonist proxyfan): 0.479 nM | Kd [3]: 0.437 nM
